Assay results as given in PMC9775004 (Biosensors, 2022).

Test system: FILLac10N0C
Test: FRET emission ratio (Venus to mTFP) response of purified FILLac10N0C
Assay type: binding, Salmonella enterica serovar Typhimurium LT2
Conditions: 50 μM compound

## O=C(O)CC(C(=O)O)C(O)C(=O)O (stereo not shown) [isocitrate]
  fluorescence emission ratio change of FILLac10N0C (specificity analysis): did not change the emission ratio
